# Screening results: PubChem, National Center for Advancing Translational Sciences (NCATS)
# Only some compounds are listed: those with a hit (about 1.1% of all), similar ones and a draw of the others.
# p53 reactivation – re-activators of mutant p53. Potency, µM (highest dose often 92.2 µM), for the others: top-dose activity change, positive = activation, most hits filed as activators. 320,000 compounds, 0.063% hits. H1299 p53-A138V BP100-luciferase reporter, luminescence, 24 h. AID 504706; further: potency means the concentration at half of the fitted maximal effect; % of control where 0% means no effect; nearly all actives have a fitted effect of over 45% in size
#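 H1299 (p53-null), stable ts p53-A138V + BP100-Luc; 1000 cells/well, Opti-MEM/10% FBS; cpd 4 pt, 1:5; 24 h, 37 deg C, 5% CO2; detection reagent 10 min RT; luminescence.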
# miR-21 reporter – raises the signal of a miR-21 reporter | HeLa miR-21 FLuc reporter, luciferase, 48 h | Potency, µM (highest dose often 38.3 µM), for inactives: at the highest dose reporter change, positive = more light | 340,000 tested, under 10 active | AID 2288; active = well fitted rising curve with a large enough effect; inconclusive = small, poorly fitted or top-dose-only effect; inactive = no such curve, though single readings can be large or run the other way;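 also: % of control where 0% means no effect; miR-21 action dims this reporter so a rising signal means less miR-21 action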
#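 Luminescence from a firefly luciferase reporter carrying a miR-21 binding site downstream, stably expressed under a CMV promoter in HeLa cells that make miR-21 endogenously, reports miRNA modulation after 48 h compound exposure up to approximately 40uM final.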
# BRCA1 expr act – activators of BRCA1 expression; MCF7-BRCA1-FFLuc reporter, luminescence, 48 h; response scale: scaled: vehicle 0%, 10 µM genistein 100%; Potency, µM (highest dose often 46.1 µM), for the others: at the top dose activation, most hits filed as activators; 380,000 compounds, 1.1% hits; AID 624202; further: potency means the concentration at half of the fitted maximal effect; nearly all actives have a fitted effect of over 80% in size
#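 MCF7-BRCA1-FFLuc, 2000 cells/well; 2 h attach, 37 °C/5% CO2; compound 48 h; luciferase substrate 15 min; luminescence end-point. Norm. to genistein 10 microM max activation and DMSO; concentration-response curves fitted.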
# Anesthetic bind – binds horse apoferritin like a general anesthetic; P02791; apoferritin/1-aminoanthracene competitive binding, fluorescence; Potency, µM (series often up to 77.5 µM), for the others: top-dose activity change, negative = displacement, hits mostly inhibitors; 350,000 compounds, 0.074% hits; AID 485281; further: potency means the concentration at half of the fitted maximal effect; on the % scale 0 is the no-effect control and ±100 the full control effect; nearly all actives have a fitted effect of over 20% in size
#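 Horse-spleen apoferritin (10 uM) was mixed with 50% saturated 1-aminoanthracene in PBS, exposed to compounds for 10 min at room temperature, and read for fluorescence (ex 380 nm, em 535 nm). Competitive displacement was fitted with a four-parameter Hill equation.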
# * hit, by the source's call; ? = inconclusive; nt = no result given. Unless noted, the call rests on the fitted dose curve; in most records, active means well fitted curve in the direction sought with a large enough effect; inconclusive means small, poorly fitted or top-dose-only effect, or another doubt; inactive means no such curve, though single readings can be large; an effect the other way counts as inactive or inconclusive.
Structure,miR-21 reporter,p53 reactivation,BRCA1 expr act,Anesthetic bind
O=C(NNC(=O)c1cccc2ccccc12)c1ccc(Cl)cc1Cl,nt,nt,13µM*,nt
O=C(NNC(=O)c1cccc2ccccc12)c1cccc(Cl)c1,nt,nt,3%,nt
COc1ccc(-c2nn(-c3ccccc3)cc2C#N)cc1,-69%,13%,4µM*,-2%
S=c1[nH]nc(-c2ccncc2)n1/N=C/c1cn(-c2ccccc2)nc1-c1ccccc1,-18%,-3%,13µM*,-14%
CC(C)n1cnc2cc(NCc3ccco3)ccc21,-71%,10%,10µM*,-23%
CCC(NS(=O)(=O)c1cccs1)c1ccc(C)cc1 (stereo unspecified),nt,5%,0%,nt
CCOC(=O)c1cn2nc(SCc3ccccc3)nc2nc1C,-59%,nt,11µM*,-22%
N#Cc1cnc2nc(SCc3ccccc3)nn2c1,-57%,?,3.5µM*,-3%

# Other records follow:
Structure,miR-21 reporter,p53 reactivation,BRCA1 expr act,Anesthetic bind
Clc1ncnc2[nH]ccc12,nt,nt,5%,nt
C[C@@H]1NS(=O)(=O)[C@H]2C[C@@H]3C=C[C@]2(O3)[C@H]1OC(=O)c1ccc(C(C)(C)C)cc1,nt,-3%,-16%,nt
COc1ccccc1OCCC(=O)N1CCN(c2ccccc2OC)CC1,-20%,-1%,3%,-6%
O=C(CCOc1ccccc1F)N1CCN(c2ccccc2O)CC1,-33%,13%,11µM*,-13%
Cc1cccc(N2CCN(S(=O)(=O)c3ccc(F)c(C(=O)Nc4ccc(C(C)C)cc4)c3)CC2)c1C,1%,nt,nt,-1%
O=C(c1ccco1)N1CCn2c1nc1ccccc12,-41%,28%,7.1µM*,-9%
CCC(=O)N1CCn2c1nc1ccccc12,-7%,2%,3%,-6%
N#C/C(=C\c1cccs1)C(=O)Nc1ccccn1,-58%,10%,10µM*,-1%

# Gathered by group, the compounds so far containing a furan ring, fused or not
Structure,miR-21 reporter,p53 reactivation,BRCA1 expr act,Anesthetic bind
CC(C)n1cnc2cc(NCc3ccco3)ccc21,-71%,10%,10µM*,-23%
O=C(c1ccco1)N1CCn2c1nc1ccccc12,-41%,28%,7.1µM*,-9%

# The main list resumes; the 2 compounds before the break are reprinted first.
Structure,miR-21 reporter,p53 reactivation,BRCA1 expr act,Anesthetic bind
CCC(=O)N1CCn2c1nc1ccccc12,-7%,2%,3%,-6%
N#C/C(=C\c1cccs1)C(=O)Nc1ccccn1,-58%,10%,10µM*,-1%
N#C/C(=C\c1ccccc1)C(=O)Nc1ccccn1,1%,2%,-15%,4%
Cc1ccc(NC(=O)/C(C#N)=C/c2cccs2)c(C)c1,-53%,23%,4µM*,13%
Cc1cccc(C)c1NC(=O)/C(C#N)=C/c1cccs1,-4%,-1%,16%,-16%
O=c1[nH]c(=S)[nH]c2c1C(C1CCCCC1)OC(C1CCCCC1)C2 (stereo unspecified),nt,nt,-37%,nt
CN(C(=O)c1ccc2c(Cl)c3c(nc2c1)CCC3)c1ccccc1,-77%,25%,6.3µM*,?
COc1ccc2occ(C(=O)c3cccs3)c2c1,-57%,?,49%,25µM*
COc1ccc2occ(C(=O)c3ccc(N)cc3)c2c1,-12%,9%,?,-19%
CN(C)/C=C(\C#N)C(=O)Nc1ccc(F)c(Cl)c1,-38%,16%,7.9µM*,-3%

# Taken from above:
# O=c1[nH]c(=S)[nH]c2c1C(C1CCCCC1)OC(C1CCCCC1)C2 (stereo unspecified) – BRCA1 expr act: -37%
# N#C/C(=C\c1ccccc1)C(=O)Nc1ccccn1 – p53 reactivation: 2%

# (continued)
Structure,miR-21 reporter,p53 reactivation,BRCA1 expr act,Anesthetic bind
CN(C)/C=C(\C#N)C(=O)Nc1ccc(F)cc1,-46%,4%,?,-5%
COCCN(C(=O)COC(=O)Cc1ccc(Cl)cc1)c1c(N)n(Cc2ccccc2)c(=O)[nH]c1=O,nt,nt,0%,nt
CC1CCc2c(sc3nn[nH]c(=O)c23)C1 (stereo unspecified),-8%,19%,29%,25µM*
CSc1nc2sc3c(c2c(=O)[nH]1)CCC(C)C3 (stereo unspecified),-18%,4%,-7%,-4%
C(=C\c1ccnc2ccccc12)/c1ccc(N2CCOCC2)cc1,nt,nt,-29%,nt
Cc1occc1-c1nnc(SCC(=O)Nc2nc(C(C)(C)C)cs2)o1,-17%,25%,36%,-24%
O=C(CSc1nnc(-c2cccnc2)o1)Nc1cccc(F)c1,nt,15%,10µM*,nt
c1ccc(CSc2nnc(Cc3ccccc3)o2)cc1,-55%,3%,13µM*,?

# Next section.
Structure,miR-21 reporter,p53 reactivation,BRCA1 expr act,Anesthetic bind
Cc1csc(NC(=O)CSc2nnc(-c3ccoc3C)o2)n1,-34%,?,10µM*,-14%
c1ccc(CSc2nnc(Cc3ccccn3)o2)cc1,-35%,10%,45%,?
Cc1cnc(NC(=O)CSc2nnc(-c3ccccc3)o2)s1,-13%,?,4µM*,-9%
Cc1cnc(NC(=O)CSc2nnc(COc3ccccc3)o2)s1,3%,-6%,-17%,-11%
O=C(CSc1nnc(-c2ccncc2)o1)Nc1cccc(F)c1,nt,22%,?,nt
CC[C@]12c3[nH]c4cc(-c5ccco5)ccc4c3CCN1C(=O)[C@@H](CC(=O)NCCCn1ccnc1)C[C@@H]2C(=O)N1CCN(C(=O)C2CC2)CC1,nt,2%,12%,nt
Oc1ccc(-c2nnc(SCc3ccccc3)o2)cc1,-39%,nt,10µM*,?
c1ccc(CSc2nnc(-c3cccnc3)o2)cc1,-46%,?,7.9µM*,4%

# (cont.)
Structure,miR-21 reporter,p53 reactivation,BRCA1 expr act,Anesthetic bind
COc1ccccc1CC(=O)Nc1ccc2nc(Nc3cccc(C(F)(F)F)c3)cc(C)c2c1,?,nt,-12%,424%
COCCNC(=O)C1CCN(Cc2cc3ccccc3n2Cc2ccc(C)cc2)CC1,17%,nt,nt,-14%
CON(C)C(=O)/C=C/c1ccc([B-](F)(F)F)cc1,nt,nt,14µM*,nt
Fc1cccc(NC(=S)NC2CCCCCCC2)c1,7%,?,68%,?
CNS(=O)(=O)c1ccc(C(=O)NCC(=O)NCCC(c2ccccc2)c2ccccc2)cc1,nt,0%,-13%,nt
Cc1ccc(Nc2ncc3c(n2)CC(C)(C)CC3=O)cc1,-48%,21%,2µM*,-20%
CC1(C)CC(=O)c2cnc(NC3CC3)nc2C1,-2%,0%,28%,-10%
O=c1[nH]c2ccccc2nc1/C=C/c1ccccc1,-61%,8%,4µM*,-13%

# (next part)
Structure,miR-21 reporter,p53 reactivation,BRCA1 expr act,Anesthetic bind
O=C(CS(=O)(=O)c1cccc2nsnc12)N1CCN(c2ccc(F)cc2)CC1,-4%,nt,19%,?
CCN(CC)c1ccc2nc3c4ccccc4c(=O)cc-3oc2c1,-58%,nt,0.89µM*,1%
CC(C)CNC(=S)N1CCC(C(=O)c2ccc(Cl)cc2)CC1,nt,nt,-49%,nt
CC(Oc1ccc(Cl)cc1Cl)c1nc(-c2ccccn2)no1 (stereo unspecified),-61%,18%,11µM*,?
CC(Oc1ccc(Cl)cc1Cl)c1nc(-c2ccc(NC(=O)c3cccnc3)cc2)no1 (stereo unspecified),29%,-14%,-66%,-11%
CCOC(=O)c1ccc(N2Cc3ccccc3C2)cc1O,-46%,21%,13µM*,-2%
Cc1cccc2c(=O)[nH]c3c(-c4nc(-c5ccc(Cl)cc5)cs4)c(O)cn3c12,nt,nt,1%,nt
C(=N\Nc1nc2ccccc2[nH]1)/c1cccc2nccnc12,0%,6%,-47%,-10%
